Assay outcomes: PubChem, National Center for Advancing Translational Sciences (NCATS)
A selection: hits, their analogues and other compounds. The true share with any hit is near 13%.
ALDH1A1 block: blocks purified human ALDH1A1 activity; P00352; Purified ALDH1A1, NADH fluorescence, propionaldehyde substrate; Potency, µM (doses to about 75.3 µM), without a hit: at the top dose activity, negative = inhibition, usual class: inhibitors; 220,000 tested, 7.3% active; AID 1030; active = well fitted inhibition curve with a large enough effect, not every such curve was filed as active; inconclusive = small, poorly fitted or top-dose-only effect, or another doubt; inactive = no such curve, though single readings can be large or run the other way;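 also: potency is read from the fitted curve at half-maximal effect; plate controls were no enzyme wells and a reference inhibitor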
miR-21 FLuc: miR-21 reporter, rising signal; Potency, µM (titrated, usually from 38.3 µM), without a hit: at the highest dose reporter change, positive = more light; AID 2288; 340,000 tested, under 10 active; HeLa miR-21 FLuc reporter, luciferase, 48 h; active = well fitted rising curve with a large enough effect; inconclusive = small, poorly fitted or top-dose-only effect; inactive = no such curve, though single readings can be large or run the other way;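 note: % of control where 0% means no effect; miR-21 action dims this reporter so a rising signal means less miR-21 action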
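Using DMEM plus 10% FBS, HeLa miR-21-FLuc cells are incubated with test compounds (final up to about 40uM) for 48 hours; firefly luciferase signal is then imaged following reagent-mediated lysis.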
JMJD2E inh: JMJD2E (human) inhibition; JMJD2E catalytic domain, FDH-coupled NADH fluorescence (FDH is formaldehyde dehydrogenase); Potency, µM (series often up to 57.1 µM), for the others: at the highest dose activity change, negative = inhibition, most hits filed as inhibitors; 230,000 tested, 1.6% active; AID 2147; active = well fitted inhibition curve with a large enough effect, not every such curve was filed as active; inconclusive = small, poorly fitted or top-dose-only effect, or another doubt; inactive = no such curve, though single readings can be large or run the other way;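 also: potency is read from the fitted curve at half-maximal effect; 0% = wells with enzyme and -100% = buffer wells without enzyme; nearly all actives have a fitted effect of over 50% in size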
Lamin A splicing: modulators of lamin A splicing | Potency, µM (titrated, usually from 46.1 µM), without a hit: top-dose ratio change, negative = inhibition, usual class: inhibitors | 200,000 tested, 0.01% active | HeLa LMNA splicing GFP/RFP minigene ratio, 48 h | AID 1487; active = well fitted inhibition curve with a large enough effect in the signal ratio, with a control signal flat, not every such curve was filed as active; inconclusive = small, poorly fitted or top-dose-only effect, or effect the other way, or a change in a side signal; the % refers to the signal ratio; also: potency is read from the fitted curve at half-maximal effect; % is scaled to controls: 0 for no effect and ±100 for the full control effect
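S3 HeLa stable clones carrying a lamin A-EGFP splicing minigene plus DsRed2 were seeded at 600 cells/well in Opti-MEM with 2% FBS, pin-dosed and incubated 48 h at 37°C. Acumen cytometry (488 nm) gave the GFP/RFP total-intensity ratio.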
G9a block: blocks human histone lysine methyltransferase G9a. Q96KQ7. G9a H3K9 monomethylation, AlphaScreen, 2 h. Potency, µM (titrated, usually from 102 µM), without a hit: at the top dose activity, negative = inhibition, most hits filed as inhibitors. 350,000 tested, 8.8% active; also: potency is read from the fitted curve at half-maximal effect; % is scaled to controls: 0 for no effect and ±100 for the full control effect; nearly all actives have a fitted effect of over 75% in size
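G9a (20 nM) preincubated 15 min RT with compounds, then 500 nM biotinylated H3K9 peptide and 20 uM SAM added; 2 h RT reaction. Monomethyl-H3K9 product detected by AlphaScreen with anti-H3K9me1 antibody, streptavidin donor and anti-rabbit IgG acceptor beads.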
Sfp inh: inhibitors of Bacillus subtilis Sfp phosphopantetheinyl transferase | 310,000 compounds, 3.5% hits | Potency, µM, without a hit: max response, negative = inhibition, most hits filed as inhibitors | Q9F4F7 | Biochemical Sfp PPTase activity, qHTS; active = well fitted inhibition curve with a large enough effect; inconclusive = small, poorly fitted or top-dose-only effect, or another doubt; inactive = no such curve, though single readings can be large or run the other way;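 also: the enzyme is Sfp with the accession as filed and its product quenches rhodamine fluorescence; potency is read from the fitted curve at half-maximal effect; 0% = enzyme reaction without inhibitor and -100% = no enzyme wells; top concentration of the series not given in the record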
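Sfp 15 nM + cpd, 15 min RT; start w/ rhodamine-CoA 5 uM, BHQ-2-YbbR 12.5 uM (final); 50 mM Hepes pH 7.6, 10 mM MgCl2, 0.01% NP-40, 0.01% BSA; read 525/598 nm at 0 and 30 min.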
* hit, by the source's call; ? = inconclusive; . = not tested or not shown; [ ] = another dose, or the depositor's remark. Unless noted, calls follow the shape of the dose curve; as a rule, active = well fitted curve in the direction sought with a large enough effect; inconclusive = small, poorly fitted or top-dose-only effect, or another doubt; inactive = no such curve, though single readings can be large; an effect the other way counts as inactive or inconclusive.

| no. | structure | ALDH1A1 block | miR-21 FLuc | JMJD2E inh |
| --- | --- | --- | --- | --- |
| 1 | N#Cc1ccc(CSc2nc3c(c(=O)[nH]2)CCC3)cc1 | . | -8% | . |
| 2 | Oc1ccc(N=Nc2ccccc2)cc1 | . | -46% | . |
| 3 | COc1cc2c(cc1OC)C1Cc3ccc(OC)c(OC)c3C[N+]1([O-])CC2 (stereo unspecified) | . | 1% | 2% |
| 4 | CCCNC(=O)Cn1cnc2sc(C(=O)NCCCN3CCOCC3)c(C)c2c1=O | . | -3% | . |
| 5 | CCCNC(=O)Cn1cnc2sc(C(=O)NCCN(CC)CC)c(C)c2c1=O | 15% | 0% | 9% |
| 6 | Cc1ccc(/C=N/NC(=O)CSc2nc3ccccc3[nH]2)o1 | . | -15% | . |
| 7 | CC(/C=N/NC(=O)CSc1nc2ccccc2n1C)=C\c1ccco1 | 13µM* | 3% | -21% |
| 8 | Cn1c(SCC(=O)N/N=C/c2ccco2)nc2ccccc21 | ? | -5% | ? |
| 9 | O=C(CSc1nnc(SCc2ccccc2)s1)N/N=C/C=C/c1ccccc1[N+](=O)[O-] | -15% | -8% | 9% |
| 10 | O=C(CSc1nnc(SCc2ccccc2)s1)N/N=C/C=C\c1ccco1 | 18µM* | -8% | ? |
| 11 | O=C(CSc1nc2ccccc2[nH]1)N/N=C/c1ccncc1 | ? | -4% | -12% |
| 12 | CCn1c(SCC(=O)N/N=C/C=C/c2ccccc2[N+](=O)[O-])nnc1-c1ccc(Cl)cc1 | 4.5µM* | 1% | 4% |

| no. | Lamin A splicing | G9a block | Sfp inh |
| --- | --- | --- | --- |
| 1 | . | ? | . |
| 2 | . | 50µM* | 9% |
| 3 | . | -2%[59 µM] | 16% |
| 4 | . | . | 10% |
| 5 | 5% | 79µM* | 15% |
| 6 | . | 45µM* | -38% |
| 7 | ? | ? | -20% |
| 8 | ? | -3% | 11% |
| 9 | -11% | -6%[59 µM] | 15% |
| 10 | -5% | 10µM* | 11µM* |
| 11 | 5%[46 µM] | 3% | 11% |
| 12 | ? | -8%[59 µM] | -9% |

Next part
| no. | structure | ALDH1A1 block | miR-21 FLuc | JMJD2E inh |
| --- | --- | --- | --- | --- |
| 13 | Cc1nn(CC(=O)Nc2nnc(C(C)C)s2)c(=O)c2ccccc12 | 2% | 0% | 5% |
| 14 | CC(C)c1ccc(CN2C(=O)NC3(CCCCCC3)C2=O)cc1 | . | 4% | . |
| 15 | CCn1c(SCC(=O)Nc2ccc(N3CCOCC3)cc2)nnc1-c1ccc(OC)cc1 | -2% | 0% | -6% |
| 16 | CCn1c(SCC(=O)N/N=C/C=C/c2ccco2)nc2ccccc21 | 13µM* | 1% | -8% |
| 17 | CCn1c(SCC(=O)N/N=C/C=C/c2ccco2)nnc1-c1ccc(OC)cc1 | -2% | -12% | -5% |
| 18 | CCn1c(SCC(=O)N/N=C/c2ccc(C)o2)nnc1-c1ccc(C)cc1 | ? | -7% | 5% |
| 19 | CCn1c(SCC(=O)N/N=C/c2ccc(C)o2)nnc1-c1ccc(C(C)(C)C)cc1 | ? | 10% | -3% |
| 20 | CCCCSCCCNC(=O)c1cn(C)c2ccc(S(=O)(=O)N3CCCCC3)cc2c1=O | . | -2% | . |
| 21 | CC(C)S(=O)(=O)N1CCCC(C(=O)c2cccc(Cl)c2)C1 (stereo unspecified) | 4% | -2% | -10% |
| 22 | Nc1nonc1C(=O)N/N=C/c1ccc(-c2ccc(Cl)c(C(=O)O)c2)o1 | 4µM* | 3% | ? |
| 23 | Nc1nonc1C(=O)N/N=C/c1ccc(Br)o1 | 0% | -5% | 3% |
| 24 | CC1=NOC(=O)/C1=C\c1ccc(-c2ccccc2Br)o1 | 18µM* | ? | -27% |

| no. | Lamin A splicing | G9a block | Sfp inh |
| --- | --- | --- | --- |
| 13 | 3%[46 µM] | . | 9% |
| 14 | . | -7% | 15% |
| 15 | 2% | ? | -2% |
| 16 | -8% | 6.3µM* | 45µM* |
| 17 | -11% | 35µM* | ? |
| 18 | -12% | 45µM* | ? |
| 19 | ? | ? | -7% |
| 20 | . | -5%[59 µM] | . |
| 21 | 8%[46 µM] | 3% | 6% |
| 22 | -12%[46 µM] | 32µM* | 8.9µM* |
| 23 | . | -3% | -15% |
| 24 | . | 7.1µM* | 56µM* |

Looked up by structure from the list above (3):
| no. | structure | ALDH1A1 block | miR-21 FLuc | JMJD2E inh |
| --- | --- | --- | --- | --- |
| 13 | Cc1nn(CC(=O)Nc2nnc(C(C)C)s2)c(=O)c2ccccc12 | 2% | 0% | 5% |
| 18 | CCn1c(SCC(=O)N/N=C/c2ccc(C)o2)nnc1-c1ccc(C)cc1 | ? | -7% | 5% |
| 17 | CCn1c(SCC(=O)N/N=C/C=C/c2ccco2)nnc1-c1ccc(OC)cc1 | -2% | -12% | -5% |

| no. | Lamin A splicing | G9a block | Sfp inh |
| --- | --- | --- | --- |
| 13 | 3%[46 µM] | . | 9% |
| 18 | -12% | 45µM* | ? |
| 17 | -11% | 35µM* | ? |

Going on with the list.
| no. | structure | ALDH1A1 block | miR-21 FLuc | JMJD2E inh |
| --- | --- | --- | --- | --- |
| 25 | CC1(C)OC(=O)C(=Cc2ccc(-c3ccc(Cl)c(C(=O)O)c3)o2)C(=O)O1 | ? | -2% | ? |
| 26 | CC1=NOC(=O)/C1=C\c1ccc(-c2ccc(Cl)c(C(=O)O)c2)o1 | 0.89µM* | -1% | ? |
| 27 | Cc1ccc(N2NC(=O)/C(=C/c3ccc(-c4ccc(Cl)c(C(=O)O)c4)o3)C2=O)cc1C | ? | -1% | -4% |
| 28 | Nc1ccccc1N=Cc1ccc(-c2cccc(Cl)c2)o1 | ? | 20% | ? |
| 29 | CC1=NOC(=O)/C1=C\c1ccc(-c2cccc(Cl)c2)o1 | ? | 8% | 10% |
| 30 | CN(C)c1ccc(NC(=O)CN2CCN(S(=O)(=O)c3cc(Cl)ccc3Cl)CC2)cc1 | ? | -6% | 1% |
| 31 | O=C(Nc1ccc2c(c1)OCO2)c1ccc(Cl)c(S(=O)(=O)N2CCOCC2)c1 | . | 2% | . |
| 32 | O=C(CN1CCN(S(=O)(=O)c2cc(Cl)ccc2Cl)CC1)Nc1ccc2c(c1)OCCO2 | 8.9µM* | 5% | -1% |
| 33 | Cc1ccc(C)c(S(=O)(=O)N2CCN(CC(=O)Nc3ccc4c(c3)OCCO4)CC2)c1 | -2% | -1% | -2% |
| 34 | O=C(Nc1ccc2c(c1)OCCO2)c1ccc(Cl)c(S(=O)(=O)N2CCOCC2)c1 | 5µM* | 4% | 11% |
| 35 | CCCCC(=O)Nc1sc2c(c1C(=O)OCC)CCC(C=O)=C2Cl | 10µM* | -4% | -2% |
| 36 | O=c1oc2cc(Br)ccc2n1Cc1ccccc1 | . | -12% | . |

| no. | Lamin A splicing | G9a block | Sfp inh |
| --- | --- | --- | --- |
| 25 | 23%[46 µM] | 14µM* | 79µM* |
| 26 | . | 16µM* | 56µM* |
| 27 | . | ? | 11% |
| 28 | . | ? | 32µM* |
| 29 | 91% | 25µM* | 20µM* |
| 30 | -15% | 1.4µM* | -2% |
| 31 | . | 24% | 28% |
| 32 | -12% | 20µM* | 8% |
| 33 | -8% | 4%[12.7 µM] | 16% |
| 34 | ? | 11%[12.7 µM] | 12% |
| 35 | ? | ? | ? |
| 36 | . | 54% | 21% |

(next part)
| no. | structure | ALDH1A1 block | miR-21 FLuc | JMJD2E inh |
| --- | --- | --- | --- | --- |
| 37 | Cc1c(CN(C)C)c2c(n1Cc1ccccc1)C(=O)c1ccc(Br)cc1-2 | 10µM* | 26% | -1% |
| 38 | O=C(OCC(=O)C12CC3CC(CC(C3)C1)C2)c1ccc(CO)cc1 | . | . | . |
| 39 | Nc1ccc(O)cc1C(=O)OCC(=O)c1ccc(C2CCCCC2)cc1 | ? | 8% | ? |
| 40 | Nc1ccc(O)cc1C(=O)OCC(=O)C12CC3CC(CC(C3)C1)C2 | ? | -23% | ? |

| no. | Lamin A splicing | G9a block | Sfp inh |
| --- | --- | --- | --- |
| 37 | -13% | 18µM* | -18% |
| 38 | . | 12%[12.7 µM] | . |
| 39 | ? | 45µM* | -20% |
| 40 | -5% | 32µM* | -1% |

Arranged by the number under G9a block (largest number first): three from the list above.
entry | smiles | ALDH1A1 block | miR-21 FLuc | JMJD2E inh | G9a block | Sfp inh
39 | Nc1ccc(O)cc1C(=O)OCC(=O)c1ccc(C2CCCCC2)cc1 | ? | 8% | ? | 45µM* | -20%
40 | Nc1ccc(O)cc1C(=O)OCC(=O)C12CC3CC(CC(C3)C1)C2 | ? | -23% | ? | 32µM* | -1%
37 | Cc1c(CN(C)C)c2c(n1Cc1ccccc1)C(=O)c1ccc(Br)cc1-2 | 10µM* | 26% | -1% | 18µM* | -18%
